Only a part is listed here, and it is no random draw. Some results for these compounds are left out of this collection, so the calls shown say nothing about other tests. Inconclusive results are not listed. Calls of active or inactive are those of the source. Calls come from the whole dose curve; cell line not stated here.
Experiment: qHTS for Antagonists of gsp, the Etiologic Mutation Responsible for Fibrous Dysplasia/McCune-Albright Syndrome: qHTS; note: nearly all actives have a fitted effect of over 65% in size
Settings: gsp-mutant cells, cAMP HTRF, 30 min; at 76.9 µM (top of the series)
% is set by controls: 0 for no effect and ±100 for the full control effect.

SMILES | activity change, negative = inhibition
CN(C)C1(CNC(=O)c2ccc(Br)cc2)CCCCC1 | inactive: 1.82%
COc1cc(C(=O)NCC2(N(C)C)CCCCC2)c([N+](=O)[O-])cc1OC | inactive: 4.13%
COc1ccc(Cl)cc1C(=O)NCC1(N(C)C)CCCCC1 | inactive: 15.7%
COc1cccc(C(=O)NCC2(N3CCCCC3)CCCCC2)c1 | inactive: 10%
O=C(NCC1(N2CCCCC2)CCCCC1)c1cccc(Cl)c1 | inactive: 3.14%
O=C(OC1CN2CCC1CC2)C(CO)(c1ccccc1)c1ccccc1 (stereo not given) | inactive: 3.91%
COc1ccc(Br)c(C(=O)NCC2(N3CCCCC3)CCCCC2)c1 | inactive: 10.8%
O=C(OCCN1CCCC1)C(O)(c1ccccc1)c1ccccc1 | inactive: 0.71%
CC(C)Oc1ccc(C(=O)NCC2(N(C)C)CCCCC2)cc1 | inactive: 12.2%
CN(C)c1cccc(C(=O)NCC2(N(C)C)CCCCC2)c1 | inactive: -2.74%
O=C(NCC1(N2CCCCC2)CCCCC1)c1cc([N+](=O)[O-])ccc1Cl | inactive: -13%
CN1[C@@H]2CC[C@H]1CC(OC(=O)C(O)(c1ccccc1)c1ccccc1)C2 (stereo not given in full) | inactive: 3.68%
COc1cc(SC)ccc1C(=O)NCC1(N(C)C)CCCCC1 | inactive: 4.31%
CCN(CC)CC(C)C(C)OC(=O)C(O)(c1ccccc1)c1ccccc1 (stereo not given) | inactive: 4.83%
CC(C)N1C(=O)CC2(CCN(CCOC(=O)C(O)(c3ccccc3)c3ccccc3)CC2)C1=O | inactive: -21.8%
Cc1ccc(C(=O)NCC2(N3CCCCC3)CCCCC2)cc1 | inactive: 11.6%
CN(C)c1ccc(C(=O)NCC2(N(C)C)CCCCC2)cc1 | inactive: -3.24%
CN(C)C1CCCC1OC(=O)C(O)(c1ccccc1)c1ccccc1 (stereo not given) | inactive: -0.859%
Cc1ccccc1C(=O)NCC1(N2CCCCC2)CCCCC1 | inactive: 9.8%
O=C(NCC1(N2CCCCC2)CCCCC1)c1cc(F)c(F)cc1Cl | inactive: -2.84%
C=CCN1CCN(CCOC(=O)C(O)(c2ccccc2)c2ccccc2)CC1 | inactive: 8.23%
COc1ccc(C(=O)NCC2(N(C)C)CCCCC2)cc1 | inactive: 11.5%
O=C(NCC1(N2CCCCC2)CCCCC1)c1cccc(Br)c1 | inactive: 6.83%
CCN1CCCC(OC(=O)C2(O)c3ccccc3C=Cc3ccccc32)C1 (stereo not given) | inactive: 13.2%
Cc1cc(C(=O)NCC2(N3CCCCC3)CCCCC2)ccc1[N+](=O)[O-] | inactive: 9.11%

Source: PubChem BioAssay AID624288 (National Center for Advancing Translational Sciences (NCATS), 2012)
